The text below walks through data of publication PMC12644462, “A novel radiosensitizer α-sulfoquinovosyl-acylpropanediol (SQAP) inhibits DNA repair pathways and sensitize cells to cancer chemotherapeutic agents” (Scientific Reports, 2025).

This data set relates to Chinese hamster V79 cells. Put plainly: Colony formation assay, radio- and chemosensitization. Format: cell-based. To be noted: V79, 10 and 20 µM SQAP. The protocol: For hypoxia irradiation, cell cultures were placed in Aneropak Kenki system (Mitsubishi Gas Chemical, Tokyo, Japan) with oxygen meter to confirm pO2 below 0.1%. Cells were kept in hypoxia for 3 h before irradiation.

Turning to bleomycin, the “effect of SQAP on cytotoxicity of the agent” value was “increased the cytotoxicity”.
